Experimental data as given in patent US20250042856A1, “CRYSTALLINE FORM OF (R)-2-(TERT-BUTYLAMINO)-1-(5-FLUOROPYRIDIN-3-YL)-ETHAN-1-OL HEMI-TARTRATE SALT FOR THE TREATMENT OF HYPERGLYCEMIA AND DIABETES 2” (ATROGI AB, priority 2021, published 2025).
Structures can show the parent of a compound that is named as a salt.

How the values were obtained:
[1] = Hygroscopicity and physical stability of the salt under stress conditions (XRPD, DSC, DVS); format: physicochemical; conditions: 2 days at 40° C. and 75% RH
L6-myotubes [2] = test: Measurement of intracellular cAMP levels in differentiated L6 cells; format: cell-based; conditions: agonist final concentration 1×10^−5 M, 15 min, alpha screen cAMP kit
Description: (§1) L6-myoblasts were grown in Dulbecco's Modified Eagle's Medium (DMEM) containing 1 g/L glucose supplemented with 10% fetal bovine serum, 2 mM L-Glutamine, 50 U/mL penicillin, 50 μg/mL streptomycin and 10 mM HEPES. Cells were plated at 1×10^5 cells per mL in 24-well plates. After reaching 90% confluence the cells were grown in medium containing 2% FBS for 7 days where upon cells differentiated into myotubes.
Differentiated cells were serum-starved overnight and stimulated with an agonist, final concentration 1×10^−5 M, for 15 min in stimulation buffer (HBSS supplemented with 1% BSA, 5 mM HEPES and 1 mM IBMX, pH 7.4). The medium was aspirated and 100 μL of 95% EtOH was added to each well of the 24-well plate and cells were kept at −20° C. overnight. The EtOH was allowed to evaporate and 500 μL of lysis buffer (1% BSA, 5 mM HEPES and 0.3% Tween-20, pH 7.4) was added to each well. The plate was kept at −80° C. for 30 min and then at −20° C. until the day of detection when the samples were thawed. Intracellular cAMP levels were detected using an alpha screen cAMP kit (6760635D from Perkin Elmer).

L6-myotubes [3] = test: Glucose uptake (3H-2-deoxyglucose) in differentiated L6-myotubes; format: cell-based; conditions: agonist final concentration 1×10^−5 M
Description: as §1
Differentiated L6-myotubes were serum-starved overnight in medium containing 0.5% fatty-acid free BSA and stimulated with an agonist, with a final concentration of 1×10^−5 M. After 1 h 40 min the cells were washed with warm glucose free medium or PBS twice and another portion of agonist was added to the glucose free medium. After 20 min the cells were exposed to 50 nM ^3H-2-deoxyglucose for 10 min before washed with ice cold glucose free medium or PBS three times and lysed with 0.2 M NaOH, 400 μL/well, for 1 h at 60° C. The cell lysate was mixed with 4 mL scintillation buffer (Emulsifier Safe, Perkin Elmer) and the radioactivity was detected in a β-counter (Tri-Carb 4810TR, Perkin Elmer).

In the case of CC(C)(C)NC[C@H](O)c1cncc(F)c1.O=C(O)C(=O)O [Comparative Salt Example 9], the hygroscopicity [1] is reported as “not hygroscopic” and the physical stability [1] is reported as “physically stable”.

With CC(C)(C)NC[C@H](O)c1cncc(F)c1 [Salt Example 1] the hygroscopicity [1] was “not hygroscopic”, the physical stability [1] was “physically stable” and the hygroscopicity ([1]; listed as hemitartrate salt) was “low hygroscopicity”.

In the case of CC(C)(C)NCC(O)c1cncc(F)c1.Cc1ccc(S(=O)(=O)O)cc1 (stereo not drawn) [Comparative Salt Example 7], the hygroscopicity [1] is reported as “slightly hygroscopic”.

In the case of CC(C)(C)NC[C@H](O)c1cncc(F)c1 [Compound Example 1, (R)-2-(tert-Butylamino)-1-(5-fluoropyridin-3-yl)ethan-1-ol], the “intracellular cAMP activity relative to that of isoproterenol” value (L6-myotubes [2]) is reported as “less than 50%” and the “glucose uptake activity relative to that of isoproterenol” value (L6-myotubes [3]) is reported as “more than 75%”.

With CC(C)(C)NC[C@H](O)c1cncc(F)c1.O=C(O)/C=C\C(=O)O [Comparative Salt Example 4] the hygroscopicity [1] was “slightly hygroscopic”.
